Screening data: PubChem, Broad Institute
Yeast UUG start = modulators of yeast start codon fidelity, primary screen, whole organism, S. cerevisiae, single point, plate reader | AID 602363, 2012 | S. cerevisiae UUG-firefly luciferase reporter, luminescence/redox ratio | activity score, % at 18.7 µM | hit rate 0.13% among 350,000;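 active = replicate mean at a twofold rise or more, about +100% in these data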;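 also: firefly luciferase made from a UUG start codon reports start codon fidelity; reporter light over untreated wells divided by growth signal over untreated wells; some hits fall short of that in this replicate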
E-sel inducer = E-selectin induction in HUVECs, primary screen, imaging, HUVEC, immunofluorescence imaging, single point. normalized: neutral wells 0, TNF-alpha wells 100. activation, % at 7.58 µM. 0.37% of 260,000 active. AID 686992, 2013;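 active means mean E-selectin-positive cell signal at least 10% of the positive control, reached in at least 60% of replicates, without over 20% cell loss; inconclusive means no rule given, readout overlaps actives, possibly toxicity-flagged; inactive means the rest, including those meeting only one limit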
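Read-out basis: % PE-positive cells; Test system: HUVEC primary endothelial cells; Technique: immunofluorescence imaging; Dosing: single-point compound dose.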
Cneo AK release = Cryptococcus neoformans cell lysis inducers, primary screen, AK release luminescence, single concentration; C. neoformans lysis, adenylate kinase release luminescence, 4 h; normalised: neutral wells 0, clomiphene wells 100; lysis activity, % at 15 µM; 0.2% of 360,000 active;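 active means mean lysis activity across replicates of at least 80%, whatever share of replicates individually reach that level; inactive means mean lysis activity below 80%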
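Assay system: log-phase C. neoformans yeast / Quantity: yeast cell density of 5 × 10^6 cells/mL / Medium: fresh YPD growth medium / Compound: single dose / Timing: static 4 h at 37 °C with compound, 1 h detection / Measured by: adenylate kinase release luminescence / Read-out: lysis from increased AK signal / Benchmarks: Clomiphene as positive lysis control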
DENV2 CPE rescue = inhibitors of DENV2 cytopathic effect, primary screen, cell-based, plate reader, single concentration; DENV2-infected cells, cytopathic effect rescue; CPE inhibition, % at 9.99 µM; 1.7% of 350,000 active; in the data active means CPE inhibition above about 20%, passing the limit was not always enough; inconclusive means no clear call, values can overlap the other calls; tested in BHK-21 cells;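 further: 0% = median of neutral control wells and 100% = median of positive control wells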
Active calls of the source: *; ? = inconclusive; nt = no result given. A selection: hits, their analogues and other compounds. The true share with any hit is near 1.8%.

Every second line gives: Yeast UUG start	E-sel inducer	Cneo AK release	DENV2 CPE rescue
- O=C(Nc1nc2ccccc2s1)c1ccc([N+](=O)[O-])o1
  nt	0	nt	-1
- Cc1cc(C)nc(NC(=O)c2ccc([N+](=O)[O-])o2)n1
  nt	nt	nt	93*
- COc1ccc2nc(NC(=O)c3ccc([N+](=O)[O-])o3)sc2c1
  -11	0	-1	21*
- C[C@H](CO)N1C[C@H](C)[C@@H](CN(C)Cc2ccccc2)Oc2ncc(/C=C/c3ccccc3)cc2C1=O
  -5	0	10	-8
- COc1ccc(C(=O)C2CCCN(Cc3cc(C)c(O)c(C)c3)C2)c(OC)c1 (stereo not given)
  3	nt	-2	7
- COc1cc(CN2CCCC(C(=O)c3ccc(C(C)(C)C)cc3)C2)cc(OC)c1O (stereo not given)
  1	nt	-1	26*
- C[C@H]1CN([C@@H](C)CO)C(=O)Cc2cc(NC(=O)CCCCCC(=O)Nc3ccccc3N)ccc2O[C@@H]1CN(C)S(=O)(=O)c1cccs1
  0	0	-2	-3
- CCCc1c(-c2cccc(Cl)c2)ncn1Cc1cccc(-c2ccccc2)c1
  nt	-8	nt	-1
- CCc1c(-c2cccc(Cl)c2)ncn1Cc1cccc(-c2ccccc2)c1
  nt	0	nt	22*
- COc1ccc(CN2C[C@H](O)COC[C@@H]3O[C@H](CC(=O)NCc4ccncn4)CC[C@H]32)cc1
  -10	0	5	?
- O=C(C[C@@H]1CC[C@@H]2[C@H](COC[C@H](O)CN2Cc2cccc(C(F)(F)F)c2)O1)NCc1ccccc1
  nt	1	97*	3
- COc1ccc(CN2C[C@H](O)COC[C@H]3O[C@H](CC(=O)NCc4ccncn4)CC[C@@H]32)cc1
  -1	0	-2	21*
- O=C(C[C@H]1CC[C@H]2[C@@H](COC[C@H](O)CN2Cc2cccc(C(F)(F)F)c2)O1)NCc1ccccc1
  nt	0	-1	-11
- O=C(C[C@H]1CC[C@H]2[C@@H](COC[C@@H](O)CN2Cc2nccs2)O1)NCc1ccc(-c2ccccc2)cc1
  1	0	1	3
- O=C(C[C@H]1CC[C@H]2[C@@H](COC[C@@H](O)CN2Cc2cccc(C(F)(F)F)c2)O1)NCCc1ccccc1
  9	0	-1	26*
- O=C(C[C@H]1CC[C@@H]2[C@H](COC[C@@H](O)CN2Cc2nccs2)O1)NCc1ccc(-c2ccccc2)cc1
  4	0	-4	34*
- O=C(C[C@H]1CC[C@@H]2[C@H](COC[C@H](O)CN2Cc2cccc(C(F)(F)F)c2)O1)NCCc1ccccc1
  -7	0	-1	15
- COc1ccc(CN(C)C[C@@H]2Oc3ccc(N(C)C)cc3CC(=O)N([C@@H](C)CO)C[C@H]2C)cc1
  -12	-7	-2	11
- Cc1noc(C)c1S(=O)(=O)N(C)C[C@@H]1OCCCC[C@@H](C)Oc2ccc(NC(=O)Cc3ccccc3)cc2C(=O)N([C@H](C)CO)C[C@@H]1C
  -11	0	-3	-1
- C[C@H]1CN([C@@H](C)CO)C(=O)c2cc(NC(=O)CCCN(C)C)ccc2O[C@H]1CN(C)S(=O)(=O)c1ccccc1
  4	0	1	5

Profiles, quoted from the list:
Cc1noc(C)c1S(=O)(=O)N(C)C[C@@H]1OCCCC[C@@H](C)Oc2ccc(NC(=O)Cc3ccccc3)cc2C(=O)N([C@H](C)CO)C[C@@H]1C is listed with Yeast UUG start: -11; E-sel inducer: 0; Cneo AK release: -3; DENV2 CPE rescue: -1
O=C(C[C@H]1CC[C@H]2[C@@H](COC[C@H](O)CN2Cc2cccc(C(F)(F)F)c2)O1)NCc1ccccc1 is listed with Yeast UUG start: nt; E-sel inducer: 0; Cneo AK release: -1; DENV2 CPE rescue: -11

Carrying on:
Every second line gives: Yeast UUG start	E-sel inducer	Cneo AK release	DENV2 CPE rescue
- O=C(C[C@H]1CC[C@H]2[C@@H](COC[C@H](O)CN2Cc2cc(F)cc(F)c2)O1)Nc1nccs1
  nt	0	96*	nt
- O=C(C[C@H]1CC[C@@H]2[C@H](COC[C@@H](O)CN2C(=O)c2ccccc2F)O1)NCc1ccc(F)cc1
  11	0	1	38*
- O=C(C[C@H]1CC[C@H]2[C@@H](COC[C@@H](O)CN2C(=O)c2ccccc2F)O1)NCc1ccc(F)cc1
  14	0	-5	11
- COCCNC(=O)C[C@@H]1CC[C@H]2[C@@H](COC[C@@H](O)CN2Cc2cccc(-c3ccncc3)c2)O1
  nt	0	0	-2
- O=C(C[C@H]1CC[C@H]2[C@@H](COC[C@@H](O)CN2Cc2cccc(C(F)(F)F)c2)O1)NCc1ccc(F)cc1
  6	1	-1	111*
- COCCNC(=O)C[C@@H]1CC[C@H]2[C@@H](COC[C@H](O)CN2Cc2cccc(-c3ccncc3)c2)O1
  nt	0	109*	-2
- C/C=C/c1ccc([C@@H]2[C@H](CO)N(CC3CC3)C23CN(S(=O)(=O)CC)C3)cc1
  nt	0	nt	-11
- C[C@@H]1CCCCO[C@H](CN(C)C(=O)C2CCCCC2)[C@@H](C)CN([C@@H](C)CO)C(=O)c2cc(NC(=O)c3ccccc3)ccc2O1
  1	0	0	-6
